Test results as given in paper PMC11767819, “Drug Screening of Flavonoids as Potential VEGF Inhibitors Through Computational Docking and Cell Models” (Molecules, 2025).

System: NF-κB in RAW 264.3 cells
Assay: Luciferase activity of NF-κB, VEGF-induced
Format: cell-based
Details: chemicals 1, 10 and 25 µM, avastin 10 ng/mL

## Cc1c(O)c(C)c2c(c1O)C(=O)C[C@@H](c1ccc(O)cc1)O2 [farrerol]
  Effect on VEGF-induced NF-κB activity (in words): suppressed in dose-dependent manners
